Reference: patent US7193044B1, “Compounds and methods for regulating apoptosis, and methods of making and screening for compounds that regulate apoptosis” (Immunogen, Inc., priority 2000, dated 2007)

System: BAD Ser155 phosphorylation in HeLa cells
Assay: BAD phosphorylation in HeLa cells (western blot band-shift / anti-phospho-Ser155 antibody)
Assay type: cell-based, human
Settings: transfected HeLa cells treated with the agent

With “TSH: thyroid stimulating hormone, GPCR ligand” the “induction of band-shift (Ser155 phosphorylation) of HA-BAD S112A/S136A” value was “neither TK (FIG. 6(a), lane 3) nor ACTH (FIG. 6(b), lane 5) alone induces a similar band-shift”.
